Molecular target: H-2K^b (Mus musculus, UniProt P01901)
Test: Peptide competition cytotoxicity assay
Format: cell-based, murine

Compound	IC50 [µM]
CC(C)C[C@H](NC(=O)[C@H](C)NC(=O)[C@@H]1CCCN1C(=O)[C@H](Cc1ccc(O)cc1)NC(=O)[C@H](CC(N)=O)NC(=O)CNC(=O)[C@@H]1CCCN1C(=O)[C@H](C)NC(=O)[C@@H](N)Cc1ccccc1)C(=O)O [SV9: FAPGNYPAL, reference compound]	0.211
CSCC[C@H](NC(=O)[C@@H](N)C(C)C)C(=O)N[C@@H](CS)C(=O)N[C@H](C(=O)N[C@@H](Cc1ccc(O)cc1)C(=O)N[C@@H](CO)C(=O)N1CCC[C@H]1C(=O)N1CCC[C@H]1C(=O)N[C@@H](CC(C)C)C(=O)O)[C@@H](C)O [aa 119–127: VMCYSPPL]	11.9

Reference: paper PMC2199025 (The Journal of Experimental Medicine, 1997)
